Experimental data as given in article PMC10272835 (2023).

What was measured:
Experiment in all cases: SPR
dual SH2 domains of SHP1 [1] = target: T1, dual SH2 domains of SHP1
T1 chain: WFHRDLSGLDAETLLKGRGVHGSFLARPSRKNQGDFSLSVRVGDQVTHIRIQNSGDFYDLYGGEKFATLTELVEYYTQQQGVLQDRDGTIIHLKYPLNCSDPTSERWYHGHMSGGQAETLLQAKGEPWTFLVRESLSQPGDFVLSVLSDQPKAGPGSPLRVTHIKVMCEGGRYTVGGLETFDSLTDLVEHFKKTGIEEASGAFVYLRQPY

[2] = target: T2, C-terminal SH2 domain of SHP1
T2 chain: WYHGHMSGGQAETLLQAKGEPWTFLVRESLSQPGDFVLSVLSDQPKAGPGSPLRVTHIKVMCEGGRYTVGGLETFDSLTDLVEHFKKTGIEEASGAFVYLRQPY

[3] = target: T3, N-terminal SH2 domain of SHP2
T3 chain: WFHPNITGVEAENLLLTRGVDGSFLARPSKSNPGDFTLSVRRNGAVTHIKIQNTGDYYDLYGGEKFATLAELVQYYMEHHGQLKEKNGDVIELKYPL

[4] = target: T4, C-terminal SH2 domain of SHP2
T4 chain: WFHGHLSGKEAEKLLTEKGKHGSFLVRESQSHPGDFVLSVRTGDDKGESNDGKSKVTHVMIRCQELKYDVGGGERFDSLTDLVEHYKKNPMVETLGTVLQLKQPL

dual SH2 domains of SHP2 = target: T5, dual SH2 domains of SHP2
T5 chain: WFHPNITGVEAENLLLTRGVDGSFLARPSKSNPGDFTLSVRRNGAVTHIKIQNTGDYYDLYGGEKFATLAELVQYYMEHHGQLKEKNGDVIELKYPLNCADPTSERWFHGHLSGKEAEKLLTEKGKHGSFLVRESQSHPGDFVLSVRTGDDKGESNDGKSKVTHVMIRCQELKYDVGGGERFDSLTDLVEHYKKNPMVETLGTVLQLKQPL

dual SH2 domains of SHP1 [5] = target: T1, dual SH2 domains of SHP1
[6] = target: T2, C-terminal SH2 domain of SHP1

koff (dual SH2 domains of SHP1 [1]): 0.000214 s⁻¹ | koff [2]: 0.000339 s⁻¹ | koff [3]: 0.00108 s⁻¹ | koff [4]: 0.000694 s⁻¹ | koff (dual SH2 domains of SHP2): 0.00108 s⁻¹ | Kd (dual SH2 domains of SHP1 [5]): 4.55 nM | Kd [6]: 6.38 nM
B1: phosphorylated PD1 ITSM peptide (peptide)
chain: KTPEPPVPSVPEQTEYATIVFPSGMGTSS
modifications: phosphorylated (phospho-ITSM; residue not printed in the text shown); biotinylated for SPR
